Measurements from patent US6545043B1 (priority 1997, dated 2003).

Tests used:
[1] = system: lesser grain borer (Rhizopertha dominica); experiment: Fumigation assay, lesser grain borer; conditions: for effectiveness as fumigant: compared with standards dichlorvos/chloropicrin
[2] = system: adult house fly (Musca domestica); experiment: Fumigation assay, adult house fly; conditions: for times less toxic/effective than chloropicrin: fumigation, adult house fly; for effectiveness as fumigant: compared with standards dichlorvos/chloropicrin

| Molecule | effectiveness as fumigant [1] | times less toxic/effective than chloropicrin [2] | effectiveness as fumigant [2] | times less effective than chloropicrin ([1]; fumigation, lesser grain borer) [times] | times more effective than chloropicrin ([1]; fumigation, lesser grain borer) |
| --- | --- | --- | --- | --- | --- |
| C=CCC#N [AC, allyl cyanide] | highly effective | about 46 times |  |  |  |
| C=CCN=C=S [AITC, allyl isothiocyanate] | highly effective |  | highly effective |  |  |
| C=CCSC#N [ATC, allyl thiocyanate] | highly effective |  | highly effective |  |  |
| C=CC(O)CC#N (stereo not shown) [CHB, 1-cyano-2-hydroxy-3-butene] | relatively weak (If the compound has an LC50 greater than five times higher than the standard, it is considered to be a relatively weak fumigant) | approximately 77 times |  | 70 |  |
| C=CC(O)C#N (stereo not shown) [CHP, 3-cyano-3-hydroxy-1-propene] | highly effective | 1.9 times | highly effective |  |  |
| C=CC(C#N)OC(C)=O (stereo not shown) [CHP-Ace, CHP acetate] | highly effective | about 20 times |  |  |  |
| C=CC(C#N)OC(=O)CC (stereo not shown) [CHP-Pro, CHP propionate] | highly effective | about 60 times | relatively weak to moderately effective |  | about 1.5 times |
| CC(C)(O)C#N [DMK-CNOH, dimethyl ketone cyanohydrin] | highly effective |  | highly effective |  |  |
| methyl ethyl ketone cyanohydrin | highly effective |  | highly effective |  |  |
